This is an account of results in US6989390B2, “Amonafide salts” (priority 2002, dated 2006).

A short description of this series: Minimum amount of water/ethanol (1.5/4 v/v) required to dissolve the crude salt at boil (recrystallization). The conditions noted are these: text summary of Table 3, hydroxylic media. An excerpt: For comparative purposes, between and among organic salts prepared in this manner and for the purposes of subsequent Example 3, Table 3, crude reaction products were recrystalized from water/ethanol (1.5/4 v/v per gram of salt) using the minimum amount of solvent to effect dissolution at boil.
In the case of succinic acid, the organic acid was dispensed as a half-equivalent in order to generate mitonafide hemisuccinate. […] Crude product that was isolated from the hydrogenation reaction mixture was analyzed for purity by high pressure liquid chromatography (HPLC) according to the conditions described in Table 1 above. […] The recrystallized product was then analyzed for purity by HPLC.
The purities of the crude salts were assessed by HPLC according to the conditions described in Table 1 above. […] The resulting purified salts were again assessed for purity.
The hydrochloride and methanesulfonic acid salts of amonafide were prepared according to U.S. Pat. No. 5,420,137. […] The purity was assessed by HPLC using the conditions described in Table 1. […] The resulting purified salts were again assessed for purity.
The hydrochloride salt of amonafide was obtained by the method of Zee-Chang et al., U.S. Pat. No. 4,614,820. […] The purity was assessed by HPLC using the conditions described in Table 1. […] The resulting purified salts were again assessed for purity.

Consider “amonafide hemisuccinate [Amonafide hemi-succinate]”, for which the “solubility compared with the HCl or methanesulfonic acid salt” value is “significantly more soluble”.
